SMILES strings stand for the structures.

Tested on in one data set: not listed separately
Put plainly: Ratio of LD50 for rat allografted with rat Walker 256 cells to ED90 for rat Walker 256 cells allografted in rat.
Consider `Oc1ccc(N(CCBr)CCBr)cc1`, for which the Ratio came out at 3.5.

The species named for another data set is Rattus norvegicus. Description: Toxicity in rat allografted with rat Walker 256 cells. The data set is classed as organism-based.
Consider `Oc1ccc(N(CCBr)CCBr)cc1`, for which the log1/CLD50 came to 5. On the same count and under the same terms, under `NS(=O)(=O)c1ccc(N(CCBr)CCBr)cc1` stands 3.13; under `ICCN(CCI)c1ccccc1`, 3.85. Same read-out and setting: under `CC(=O)Nc1ccc(N(CCBr)CCBr)cc1` stands 4.82; under `CC(=O)Sc1ccc(N(CCCl)CCCl)cc1`, 3.16; under `O=Cc1ccc(N(CCCl)CCCl)cc1`, 2.78. As for `CC(=O)Nc1ccc(N(CCCl)CCCl)cc1`, the log1/CLD50 came to 3.99. Still for that read-out and setting: under `BrCCN(CCBr)c1ccccc1` stands 4.4. As to `NS(=O)(=O)c1ccc(N(CCCl)CCCl)cc1`, the log1/CLD50 was 2.94. `Oc1ccc(N(CCCl)CCCl)cc1` yielded a log1/CLD50 of 4.07. The same measure, in the same setting: under `O=C(O)c1ccc(N(CCBr)CCBr)cc1` stands 3.55; under `Nc1ccc(N(CCCl)CCCl)cc1`, 4.82; under `CC(=O)Nc1ccc(N(CCI)CCI)cc1`, 4.5. Still for that read-out and setting: under `NC(=O)c1ccc(N(CCCl)CCCl)cc1` stands 2.92. `O=C(O)c1ccc(N(CCCl)CCCl)cc1` returned a log1/CLD50 of 3.03.

(Values after ChEMBL document CHEMBL3244068 (J Med Chem, 1978).)
